The text below walks through data of PubChem BioAssay AID2461 (Johns Hopkins Ion Channel Center, 2010).

Each structure is given as a SMILES string. The list shows a part of the results, in another mix than the full data. The source made the active and inactive calls.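 The calls were made as follows: active = primary screen active and over 50% activation in each of two duplicate runs; inactive = the rest.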

The experiment concerns transient receptor potential cation channel C4 beta (TRPC4), mouse. The experiment can be described thus: activators of mouse TRPC4 channel, confirmation, cell-based, second round, Fluo4, HEK293 TRPC4beta/mu-opioid, 1 µM (AID 2461). The following applies: Fluo4 calcium fluorescence, at 1 µM.
On to `CN(C)CCOC(=O)C(O)(c1ccccc1)C1CCCC1` (configuration not stated), for which the result was inactive.
`CCN(CC)CCCOC(=O)C(O)(c1ccccc1)c1ccccc1`: the outcome was inactive.
